Biological target: Cannabinoid receptor 1 (Rattus norvegicus, UniProt P20272)
Test: Displacement of [3H]CP-55940 from rat forebrain membrane which expresses Cannabinoid receptor 1 in the presence of PMSF
Procedure, shortened: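 Male Wistar rat forebrain membranes, stored at -80 °C. Rapid filtration assay with [3H]CP-55,940 and 50 μg membrane protein in 50 mM Tris·HCl, 2 mM Tris·EDTA, 3 mM MgCl2, 5 mg/mL BSA, pH 7.4, with 50 μM PMSF (final) added fresh. Incubated 1 h at 30 °C. Nonspecific binding with 10 μM AEA. Ki by nonlinear regression using a saturation-derived Kd.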

The chains behind the UniProt entries cited, without tags or fusion partners.
UniProt P20272, whole entry: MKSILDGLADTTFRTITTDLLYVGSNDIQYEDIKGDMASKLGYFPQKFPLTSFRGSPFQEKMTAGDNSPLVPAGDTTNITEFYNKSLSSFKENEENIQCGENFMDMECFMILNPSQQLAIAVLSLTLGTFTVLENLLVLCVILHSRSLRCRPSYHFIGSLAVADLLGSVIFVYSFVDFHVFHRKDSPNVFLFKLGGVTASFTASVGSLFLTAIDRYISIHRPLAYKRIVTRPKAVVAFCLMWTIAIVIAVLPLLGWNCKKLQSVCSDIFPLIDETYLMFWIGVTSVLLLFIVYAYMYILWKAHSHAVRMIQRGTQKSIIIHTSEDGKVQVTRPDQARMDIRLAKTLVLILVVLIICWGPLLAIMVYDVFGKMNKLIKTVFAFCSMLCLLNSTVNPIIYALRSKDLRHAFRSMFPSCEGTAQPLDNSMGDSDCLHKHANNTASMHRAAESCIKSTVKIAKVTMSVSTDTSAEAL

CCCCC/C=C\C/C=C\C/C=C\C/C=C\CCCC(=O)OC(CO)CO [2-ARACHIDONOYLGLYCEROL]
Ki: 100 nM

— ChEMBL document CHEMBL1135549, “Oxygenated metabolites of anandamide and 2-arachidonoylglycerol: conformational analysis and interaction with cannabinoid receptors, membrane transporter, and fatty acid amide hydrolase” (J Med Chem, 2002)
